TDP1 cell noCPT = qHTS for Inhibitors of human tyrosyl-DNA phosphodiesterase 1 (TDP1): qHTS in cells in absence of CPT; DT40 Tdp1-/- hTDP1 cells, no CPT, ATP luminescence, 48 h; Potency, µM (series often up to 46.2 µM), for inactives: at the highest dose activity change, negative = growth inhibition, usual class: inhibitors; 15% of 420,000 active; AID 686978, 2013; further: potency means the concentration at half of the fitted maximal effect; on the % scale 0 is the no-effect control and ±100 the full control effect; nearly all actives have a fitted effect of over 55% in size
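No-CPT arm: Tdp1-/-;hTDP1 DT40 cells (400/well) plus compounds, incubated ≥48 hr at 37 °C. Readout CellTiter-Glo luminescence.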
uPA generation = cell surface uPA generation inhibition; cell surface uPA generation assay, qHTS; Potency, µM (doses to about 38.3 µM), inactives show at the top dose activity change, negative = inhibition, most hits filed as inhibitors; 0.31% of 330,000 active; AID 540303; active means well fitted inhibition curve with a large enough effect; inconclusive means small, poorly fitted or top-dose-only effect; inactive means no such curve, though single readings can be large or run the other way; tested in mouse RAW 264.7 cells; further: potency means the concentration at half of the fitted maximal effect; on the % scale 0 is the no-effect control and ±100 the full control effect; nearly all actives have a fitted effect of over 55% in size
miR-21 FLuc = miR-21 reporter, rising signal | HeLa miR-21 FLuc reporter, luciferase, 48 h | Potency, µM (top dose mostly 38.3 µM), inactives show at the highest dose reporter change, positive = more light | 340,000 tested, under 10 active | AID 2288; active = well fitted rising curve with a large enough effect; inconclusive = small, poorly fitted or top-dose-only effect; inactive = no such curve, though single readings can be large or run the other way;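 note: % of control where 0% means no effect; miR-21 action dims this reporter so a rising signal means less miR-21 action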
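Luminescence from a firefly luciferase reporter carrying a miR-21 binding site downstream, stably expressed under a CMV promoter in HeLa cells that make miR-21 endogenously, reports miRNA modulation after 48 h compound exposure up to approximately 40uM final.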
TDP1 block = inhibitors of human tyrosyl-DNA phosphodiesterase TDP1; 0.28% of 350,000 active; Potency, µM (titrated, usually from 130 µM), without a hit: at the top dose activity change, negative = inhibition, most hits filed as inhibitors; AID 485290; recombinant TDP1, AlphaScreen DNA substrate cleavage; Q9NUW8; further: potency means the concentration at half of the fitted maximal effect; on the % scale 0 is the no-effect control and ±100 the full control effect; nearly all actives have a fitted effect of over 40% in size
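Signal: AlphaScreen proximity between streptavidin donor and anti-FITC acceptor beads on intact substrate. Reaction: Tdp1 1 nM, substrate 15 nM final, 5 min RT after 15 min compound preincubation.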
TDP1 cell CPT = growth inhibition of DT40 Tdp1-/-;hTDP1 cells with camptothecin (screen for TDP1 inhibitors); chicken DT40 Tdp1-/-;hTDP1 cells + 20 nM CPT, ATP luminescence, 48 h; 12% of 420,000 active; Potency, µM (doses to about 46.2 µM), inactives show at the highest dose activity change, negative = growth inhibition, usual class: inhibitors; AID 686979; further: potency means the concentration at half of the fitted maximal effect; on the % scale 0 is the no-effect control and ±100 the full control effect; nearly all actives have a fitted effect of over 55% in size
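Chicken DT40 Tdp1-/- cells stably complemented with human TDP1 were seeded at 400 cells/well in medium containing 20 nM camptothecin, exposed to pin-transferred compounds, and grown at 37 °C for at least 48 hr. Viability was read as ATP luminescence.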
The depositor's hits bear a star; ? = inconclusive; / = no result; [ ] = dose if it differs, or a comment. The list is not random: actives were taken first. Their share in the collection is about 16%. Unless noted, the call rests on the fitted dose curve; in most records, active means well fitted curve in the direction sought with a large enough effect; inconclusive means small, poorly fitted or top-dose-only effect, or another doubt; inactive means no such curve, though single readings can be large; an effect the other way counts as inactive or inconclusive.

1. COc1ccc(-n2c(COc3ccc(C)cc3)nnc2SCc2ccc(C#N)cc2)cc1
2. COc1ccc(-n2c(COc3ccc(Cl)cc3)nnc2SCc2ccc(C#N)cc2)cc1
3. N#Cc1ccc(OCc2nnc(SCC(=O)c3ccccc3)n2-c2ccccc2)cc1
4. COC(=O)C[C@@H]1C[C@H]2c3cc(NS(C)(=O)=O)ccc3O[C@H]2[C@H](CO)O1
5. CC(=O)C1=C(c2ccc(Br)cc2)C(=O)c2ccccc2C1=O
6. CCNc1ncc2ncc(=O)n(C[C@H]3CCCO3)c2n1

assay / compound,1,2,3,4,5,6
uPA generation,/,?,-8%,/,-10%,/
miR-21 FLuc,6%,14%,-1%,/,?,/
TDP1 cell CPT,?,?,23µM*,-9%,1.3µM*,12µM*
TDP1 cell noCPT,?,23µM*,?,-21%,1.5µM*,21µM*
TDP1 block,2%,0%,0%,/,13%,/

7. COc1cc2nc(N(C)C)c(CNCc3nonc3C)cc2c(OC)c1OC
8. Cc1c(C(=O)OCC(=O)Nc2c(C)n(C)n(-c3ccccc3)c2=O)cccc1[N+](=O)[O-]
9. COc1ccccc1C(C(=O)c1ccccc1)c1ccc2ccccc2c1 (configuration not stated)
10. CCOC(=O)C1=CCN(S(=O)(=O)c2ccc(C)cc2)C1c1cccc(F)c1 (configuration not stated)
11. CCOC(=O)C1=CCN(S(=O)(=O)c2ccc(C)cc2)C1c1cccc(Cl)c1 (configuration not stated)
12. CCOC(=O)C1=CCN(S(=O)(=O)c2cccc(Cl)c2)C1c1cccc(C)c1 (configuration not stated)

assay / compound,7,8,9,10,11,12
uPA generation,/,11%,/,/,/,/
miR-21 FLuc,/,1%,/,/,/,/
TDP1 cell CPT,5%[9.04 µM],?,?,?,?,?
TDP1 cell noCPT,-13%,?,16µM*,23µM*,23µM*,18µM*
TDP1 block,/,7%,/,/,/,/

13. Cc1cc(C)c(-n2c(SCc3nc4ccccc4s3)n[nH]c2=O)c(C)c1
14. CCCn1c(SCc2nc3ccccc3s2)n[nH]c1=O
15. Cc1cc(C)c(-n2c(SCCS(=O)(=O)c3ccc(F)cc3)n[nH]c2=O)c(C)c1
16. COc1ccc(NC(=O)C2=CCN(S(=O)(=O)c3ccccc3)CC2)cc1OC
17. O=C1c2ccccc2C(=O)C12OC2c1ccc(Cl)cc1Cl (configuration not stated)
18. CCOc1ccc(C(=O)N(CN2CCCC2=O)c2ccc(C)cc2)cc1

assay / compound,13,14,15,16,17,18
uPA generation,1%,-4%,-15%,-5%,-1%,/
miR-21 FLuc,23%,-65%,?,3%,-5%,-1%
TDP1 cell CPT,?,12%,26µM*,-15%,5.2µM*,8.2µM*
TDP1 cell noCPT,29µM*,8%,23µM*,-5%,9.2µM*,23µM*
TDP1 block,-1%,6%,3%,4%,-3%,3%

From compound 17 to 18, as listed above:
17. O=C1c2ccccc2C(=O)C12OC2c1ccc(Cl)cc1Cl (configuration not stated)
18. CCOc1ccc(C(=O)N(CN2CCCC2=O)c2ccc(C)cc2)cc1

assay / compound,17,18
uPA generation,-1%,/
miR-21 FLuc,-5%,-1%
TDP1 cell CPT,5.2µM*,8.2µM*
TDP1 cell noCPT,9.2µM*,23µM*
TDP1 block,-3%,3%

Copied from the list.
TDP1 cell noCPT, #13 is entered as 29µM*
uPA generation, #17 is entered as -1%

Next section.
19. COc1ccc(C)cc1NC(=O)C1CCN(S(=O)(=O)c2ccc3c(c2)NC(=O)CO3)CC1
20. Cc1cccc(C)c1NC(=O)C1C(c2ccc3c(c2)OCO3)=Nc2ccccc2N1C(=O)c1ccccn1 (configuration not stated)
21. Cc1cccc(C)c1NC(=O)C1C(c2ccc3c(c2)OCO3)=Nc2ccccc2N1C(=O)c1cccc(C(F)(F)F)c1 (configuration not stated)
22. O=C(CSc1nnnn1-c1ccccc1)Nc1ncc(Cc2ccccc2Cl)s1
23. O=C(Nc1ncc(Cc2ccc(Cl)cc2Cl)s1)c1ccc([N+](=O)[O-])cc1
24. O=C(Nc1ncc(Cc2ccccc2Cl)s1)C1=NCCN1
25. CNc1c2cccc(C)c2nc2c(C(=O)NCCN(C)C)cccc12
26. CCOc1ccc(NC(=O)CSc2nnc(C)n2CC2CCCO2)cc1 (configuration not stated)
27. O=C(CCl)N(CCCNC(=O)C(F)(F)F)c1ccc([N+](=O)[O-])cc1

assay / compound,19,20,21,22,23,24,25,26,27
uPA generation,-15%,/,/,4%,-1%,-21%,-7%,-4%,-4%
miR-21 FLuc,18%,/,/,-8%,-6%,-5%,/,-1%,?
TDP1 cell CPT,-26%,?,7.3µM*,8%,18µM*,21µM*,0.18µM*,-11%,2.6µM*
TDP1 cell noCPT,-9%,21µM*,7.3µM*,5%,18µM*,?,0.18µM*,0%,6.5µM*
TDP1 block,4%,/,/,-3%,-3%,7%,/,7%,1%

Screening data from PubChem BioAssay.
